The source of these data is ChEMBL document CHEMBL1145211, “Substituted 5,5'-diphenyl-2-thioxoimidazolidin-4-one as CB1 cannabinoid receptor ligands: synthesis and pharmacological evaluation” (J Med Chem, 2005).

The chains behind the UniProt entries cited, without tags or fusion partners.
UniProt P21554, whole entry: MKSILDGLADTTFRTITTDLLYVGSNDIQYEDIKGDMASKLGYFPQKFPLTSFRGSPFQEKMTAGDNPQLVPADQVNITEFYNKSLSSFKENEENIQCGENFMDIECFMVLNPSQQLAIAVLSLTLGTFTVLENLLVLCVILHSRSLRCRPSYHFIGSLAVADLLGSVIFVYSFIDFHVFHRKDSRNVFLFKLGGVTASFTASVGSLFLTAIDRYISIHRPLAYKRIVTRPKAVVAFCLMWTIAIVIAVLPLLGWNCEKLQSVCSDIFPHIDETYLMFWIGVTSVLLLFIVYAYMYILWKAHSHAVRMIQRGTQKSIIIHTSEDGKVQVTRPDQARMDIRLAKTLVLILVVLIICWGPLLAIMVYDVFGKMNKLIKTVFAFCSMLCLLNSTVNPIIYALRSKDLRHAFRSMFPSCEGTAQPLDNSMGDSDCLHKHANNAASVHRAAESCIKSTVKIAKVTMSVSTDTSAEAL

For the experiment, the target named is Cannabinoid receptor 1 (Homo sapiens, UniProt P21554). Nature of the experiment: biochemical. Type of experiment: cell-based, CHO.

Molecules are shown by their SMILES.

Regarding `C=CCN1C(=O)NC(c2ccc(I)cc2)(c2ccc(I)cc2)C1=O`, the Ki (commonly the dissociation constant of the complex between target and ligand, obtained from inhibition or displacement) was 1.74 µM.
